Assay results reported in BindingDB's records for doi:10.1021/jm00101a032 (Pfizer, 1992).

Assay: Effect on forskolin stimulated adenylate cyclase activity at 5-hydroxytryptamine 1A receptor of guinea pig hippocampus.

COc1ccc2[nH]cc(CCN(C)C)c2c1 [3-(2-DIMETHYLAMINOETHYL)-5-METHOXYINDOLE]
IC50: 15 nM
